The source made the active and inactive calls. No cut-off for these calls is given here.

The chains behind the UniProt entries cited, without tags or fusion partners. Where a name states a change or a piece, a line headed by the entry shows the natural chain unless it says otherwise.
UniProt O43741: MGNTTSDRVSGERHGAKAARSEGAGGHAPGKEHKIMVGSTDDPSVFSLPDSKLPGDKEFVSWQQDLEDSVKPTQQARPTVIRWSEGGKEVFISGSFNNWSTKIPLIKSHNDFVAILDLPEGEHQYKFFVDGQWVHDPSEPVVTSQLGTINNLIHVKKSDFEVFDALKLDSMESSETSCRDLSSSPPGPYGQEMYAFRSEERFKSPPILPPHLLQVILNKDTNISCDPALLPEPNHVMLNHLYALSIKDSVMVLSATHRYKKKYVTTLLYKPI
UniProt Q13131: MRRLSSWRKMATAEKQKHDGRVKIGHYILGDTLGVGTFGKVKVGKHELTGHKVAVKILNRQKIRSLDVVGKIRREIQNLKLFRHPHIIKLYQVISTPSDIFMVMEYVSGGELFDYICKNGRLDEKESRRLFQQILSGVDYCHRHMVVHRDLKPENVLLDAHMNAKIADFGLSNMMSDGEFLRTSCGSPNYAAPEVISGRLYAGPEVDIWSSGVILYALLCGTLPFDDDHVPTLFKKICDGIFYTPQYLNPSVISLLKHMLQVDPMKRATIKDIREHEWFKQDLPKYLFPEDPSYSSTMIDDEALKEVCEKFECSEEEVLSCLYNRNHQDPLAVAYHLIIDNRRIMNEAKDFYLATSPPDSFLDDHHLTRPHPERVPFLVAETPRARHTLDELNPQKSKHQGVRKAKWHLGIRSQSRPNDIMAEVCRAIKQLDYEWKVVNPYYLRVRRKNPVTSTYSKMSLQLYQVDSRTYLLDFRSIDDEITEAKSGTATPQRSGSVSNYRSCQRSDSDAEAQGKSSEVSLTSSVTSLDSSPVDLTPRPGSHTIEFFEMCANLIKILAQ
UniProt Q9UGI9: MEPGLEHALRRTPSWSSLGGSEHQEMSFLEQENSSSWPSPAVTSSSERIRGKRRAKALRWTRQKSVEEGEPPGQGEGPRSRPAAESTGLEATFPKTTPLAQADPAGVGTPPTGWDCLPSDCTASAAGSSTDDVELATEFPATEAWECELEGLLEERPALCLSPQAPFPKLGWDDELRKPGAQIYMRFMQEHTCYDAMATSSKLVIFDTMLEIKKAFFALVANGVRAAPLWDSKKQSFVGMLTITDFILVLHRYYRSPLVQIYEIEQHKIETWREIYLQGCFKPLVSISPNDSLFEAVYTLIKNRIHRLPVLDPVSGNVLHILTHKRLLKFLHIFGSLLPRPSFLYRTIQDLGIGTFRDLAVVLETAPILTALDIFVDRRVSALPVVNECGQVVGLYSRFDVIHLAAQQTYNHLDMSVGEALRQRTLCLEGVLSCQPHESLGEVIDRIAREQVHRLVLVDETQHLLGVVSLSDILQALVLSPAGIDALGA
UniProt P54646: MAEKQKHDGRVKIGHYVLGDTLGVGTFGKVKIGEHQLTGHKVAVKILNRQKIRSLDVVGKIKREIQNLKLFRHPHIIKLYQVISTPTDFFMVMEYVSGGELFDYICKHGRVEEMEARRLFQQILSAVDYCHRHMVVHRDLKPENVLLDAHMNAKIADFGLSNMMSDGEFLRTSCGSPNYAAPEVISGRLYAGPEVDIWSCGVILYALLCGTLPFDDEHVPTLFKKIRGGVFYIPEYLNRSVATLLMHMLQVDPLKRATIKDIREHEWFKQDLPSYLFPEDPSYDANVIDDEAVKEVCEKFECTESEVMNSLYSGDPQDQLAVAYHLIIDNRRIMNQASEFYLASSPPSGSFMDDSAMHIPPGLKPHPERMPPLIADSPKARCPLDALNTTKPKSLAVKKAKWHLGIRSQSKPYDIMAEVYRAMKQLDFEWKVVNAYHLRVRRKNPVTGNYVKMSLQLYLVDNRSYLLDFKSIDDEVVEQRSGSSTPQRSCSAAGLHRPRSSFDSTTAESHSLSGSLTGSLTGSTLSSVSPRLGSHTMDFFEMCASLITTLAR
UniProt Q9UGJ0: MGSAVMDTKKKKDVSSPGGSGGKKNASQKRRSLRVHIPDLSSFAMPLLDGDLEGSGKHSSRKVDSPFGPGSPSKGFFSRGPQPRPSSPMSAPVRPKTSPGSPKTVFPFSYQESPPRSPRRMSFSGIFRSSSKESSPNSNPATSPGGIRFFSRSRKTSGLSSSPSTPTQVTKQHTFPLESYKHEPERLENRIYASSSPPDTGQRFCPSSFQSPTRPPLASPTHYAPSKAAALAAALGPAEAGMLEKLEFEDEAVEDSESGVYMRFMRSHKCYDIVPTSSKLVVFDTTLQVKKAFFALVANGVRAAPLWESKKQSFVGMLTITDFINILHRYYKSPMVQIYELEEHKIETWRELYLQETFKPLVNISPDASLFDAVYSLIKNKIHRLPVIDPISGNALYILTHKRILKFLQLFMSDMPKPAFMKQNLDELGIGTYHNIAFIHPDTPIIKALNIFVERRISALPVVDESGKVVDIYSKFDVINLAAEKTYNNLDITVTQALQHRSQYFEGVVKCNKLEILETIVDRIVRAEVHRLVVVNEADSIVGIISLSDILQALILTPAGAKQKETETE
UniProt Q9Y478: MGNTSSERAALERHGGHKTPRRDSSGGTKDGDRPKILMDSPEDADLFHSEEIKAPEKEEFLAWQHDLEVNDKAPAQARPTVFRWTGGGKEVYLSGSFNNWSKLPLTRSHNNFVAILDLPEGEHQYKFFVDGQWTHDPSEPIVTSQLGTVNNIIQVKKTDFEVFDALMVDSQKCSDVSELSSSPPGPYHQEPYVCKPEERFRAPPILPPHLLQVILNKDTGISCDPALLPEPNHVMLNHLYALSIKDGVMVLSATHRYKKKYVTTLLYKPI
UniProt Q15120, whole entry, looked up: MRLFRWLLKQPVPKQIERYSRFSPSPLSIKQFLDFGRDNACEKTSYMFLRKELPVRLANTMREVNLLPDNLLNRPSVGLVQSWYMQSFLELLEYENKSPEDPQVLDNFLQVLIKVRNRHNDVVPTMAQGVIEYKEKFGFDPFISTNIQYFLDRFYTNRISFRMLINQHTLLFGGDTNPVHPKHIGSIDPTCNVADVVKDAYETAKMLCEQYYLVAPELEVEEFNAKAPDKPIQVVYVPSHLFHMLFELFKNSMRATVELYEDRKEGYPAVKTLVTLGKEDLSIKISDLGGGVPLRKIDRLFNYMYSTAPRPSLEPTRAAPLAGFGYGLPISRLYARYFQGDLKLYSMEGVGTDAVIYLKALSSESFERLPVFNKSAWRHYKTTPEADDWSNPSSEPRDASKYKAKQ
UniProt Q9P2K8: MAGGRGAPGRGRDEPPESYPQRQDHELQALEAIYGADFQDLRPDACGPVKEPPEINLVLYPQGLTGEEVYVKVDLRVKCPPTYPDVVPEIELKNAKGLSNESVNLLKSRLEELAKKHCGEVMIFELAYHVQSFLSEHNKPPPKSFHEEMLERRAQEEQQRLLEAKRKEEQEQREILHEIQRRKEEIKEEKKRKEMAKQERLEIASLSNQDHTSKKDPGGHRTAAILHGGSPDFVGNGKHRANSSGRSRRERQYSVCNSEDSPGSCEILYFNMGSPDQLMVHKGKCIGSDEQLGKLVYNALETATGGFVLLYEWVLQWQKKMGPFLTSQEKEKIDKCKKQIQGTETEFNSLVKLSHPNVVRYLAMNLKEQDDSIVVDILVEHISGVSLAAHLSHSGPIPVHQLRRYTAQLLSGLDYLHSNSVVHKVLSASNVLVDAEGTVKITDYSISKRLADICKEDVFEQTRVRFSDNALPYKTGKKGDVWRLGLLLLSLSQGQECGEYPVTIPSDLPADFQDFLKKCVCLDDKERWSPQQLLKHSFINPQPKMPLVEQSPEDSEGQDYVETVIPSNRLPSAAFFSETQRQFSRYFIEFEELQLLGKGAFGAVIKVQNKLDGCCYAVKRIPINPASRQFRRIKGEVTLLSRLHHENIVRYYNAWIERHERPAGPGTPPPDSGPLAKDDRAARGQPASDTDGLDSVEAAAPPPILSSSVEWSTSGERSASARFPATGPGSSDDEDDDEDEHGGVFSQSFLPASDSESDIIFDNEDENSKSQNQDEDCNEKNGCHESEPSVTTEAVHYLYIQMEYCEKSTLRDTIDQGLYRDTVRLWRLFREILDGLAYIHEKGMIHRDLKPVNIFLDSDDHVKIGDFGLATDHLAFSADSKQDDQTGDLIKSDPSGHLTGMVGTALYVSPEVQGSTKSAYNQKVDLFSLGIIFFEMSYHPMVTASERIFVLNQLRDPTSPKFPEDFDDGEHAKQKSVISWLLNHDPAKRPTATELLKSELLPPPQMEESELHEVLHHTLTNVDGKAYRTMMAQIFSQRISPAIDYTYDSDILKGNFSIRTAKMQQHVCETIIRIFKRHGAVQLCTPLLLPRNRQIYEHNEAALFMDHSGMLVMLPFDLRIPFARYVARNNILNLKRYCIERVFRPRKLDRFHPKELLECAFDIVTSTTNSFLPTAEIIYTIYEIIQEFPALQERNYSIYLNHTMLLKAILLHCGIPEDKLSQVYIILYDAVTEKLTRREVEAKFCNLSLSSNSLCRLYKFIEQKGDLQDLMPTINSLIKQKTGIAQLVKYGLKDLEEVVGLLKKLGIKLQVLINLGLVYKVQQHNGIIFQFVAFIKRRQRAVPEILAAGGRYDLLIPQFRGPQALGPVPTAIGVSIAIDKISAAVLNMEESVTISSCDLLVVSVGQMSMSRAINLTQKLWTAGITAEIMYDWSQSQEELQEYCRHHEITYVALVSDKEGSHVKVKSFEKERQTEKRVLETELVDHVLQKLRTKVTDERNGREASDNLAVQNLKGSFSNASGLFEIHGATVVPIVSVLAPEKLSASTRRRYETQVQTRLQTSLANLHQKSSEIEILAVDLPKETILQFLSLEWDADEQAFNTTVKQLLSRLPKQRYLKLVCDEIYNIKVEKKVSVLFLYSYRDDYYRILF
UniProt Q16654, whole entry, looked up: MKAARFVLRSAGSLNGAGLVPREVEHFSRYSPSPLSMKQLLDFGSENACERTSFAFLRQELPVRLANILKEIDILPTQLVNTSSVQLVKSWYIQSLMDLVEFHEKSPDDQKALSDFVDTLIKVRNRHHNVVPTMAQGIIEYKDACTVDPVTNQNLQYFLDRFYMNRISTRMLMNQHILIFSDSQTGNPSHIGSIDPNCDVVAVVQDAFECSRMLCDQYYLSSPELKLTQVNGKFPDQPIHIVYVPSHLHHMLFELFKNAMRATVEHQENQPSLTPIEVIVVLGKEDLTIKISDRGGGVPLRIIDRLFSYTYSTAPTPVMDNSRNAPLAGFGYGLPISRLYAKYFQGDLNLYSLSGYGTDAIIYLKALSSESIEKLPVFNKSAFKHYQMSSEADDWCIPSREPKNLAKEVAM
UniProt P29597: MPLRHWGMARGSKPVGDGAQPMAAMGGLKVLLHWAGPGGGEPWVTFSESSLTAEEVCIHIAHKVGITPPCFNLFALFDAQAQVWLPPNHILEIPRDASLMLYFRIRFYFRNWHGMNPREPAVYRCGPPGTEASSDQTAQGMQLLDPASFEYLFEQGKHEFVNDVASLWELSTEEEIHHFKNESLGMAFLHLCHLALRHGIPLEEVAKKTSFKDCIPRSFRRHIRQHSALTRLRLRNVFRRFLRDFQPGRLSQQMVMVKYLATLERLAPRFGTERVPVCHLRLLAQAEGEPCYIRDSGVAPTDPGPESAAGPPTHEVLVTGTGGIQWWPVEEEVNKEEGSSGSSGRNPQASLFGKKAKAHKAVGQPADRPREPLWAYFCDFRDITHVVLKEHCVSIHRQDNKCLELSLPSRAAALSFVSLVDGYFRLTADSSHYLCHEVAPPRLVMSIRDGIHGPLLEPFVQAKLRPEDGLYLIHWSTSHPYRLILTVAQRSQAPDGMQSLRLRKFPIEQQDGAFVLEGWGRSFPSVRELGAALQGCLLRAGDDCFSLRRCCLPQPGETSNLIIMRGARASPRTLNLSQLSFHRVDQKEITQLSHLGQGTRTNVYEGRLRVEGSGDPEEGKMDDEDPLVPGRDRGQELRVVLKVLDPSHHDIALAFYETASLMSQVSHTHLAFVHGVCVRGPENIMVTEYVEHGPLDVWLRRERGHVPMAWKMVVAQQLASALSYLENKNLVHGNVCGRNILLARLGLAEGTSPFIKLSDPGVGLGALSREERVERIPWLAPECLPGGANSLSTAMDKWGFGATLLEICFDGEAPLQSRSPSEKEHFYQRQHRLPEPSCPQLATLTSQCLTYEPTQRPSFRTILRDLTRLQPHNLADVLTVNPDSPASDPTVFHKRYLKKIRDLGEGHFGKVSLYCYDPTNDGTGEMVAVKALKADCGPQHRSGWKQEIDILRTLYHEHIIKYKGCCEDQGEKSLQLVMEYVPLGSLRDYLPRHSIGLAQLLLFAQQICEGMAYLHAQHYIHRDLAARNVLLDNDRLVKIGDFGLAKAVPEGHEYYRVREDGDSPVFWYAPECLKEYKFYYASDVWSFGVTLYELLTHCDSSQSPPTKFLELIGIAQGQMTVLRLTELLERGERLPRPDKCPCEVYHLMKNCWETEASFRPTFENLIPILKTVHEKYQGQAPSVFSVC

The target of assay [1] is T1, [Pyruvate dehydrogenase (acetyl-transferring)] kinase isozyme 2, mitochondrial (Homo sapiens, UniProt Q15119). Kind of assay: Binding affinity to human PDHK2 expressed in permeabilized HEK293 cells at 30 uM for 2 hrs by NanoBRET target engagement assay. The assay is classed as cell-based. For orientation: BRET reads energy transfer from a luciferase to a nearby fluorophore.

Assay [2] has as its target Serine/threonine-protein kinase mTOR (Homo sapiens) (UniProt P42345). Nature of the assay: Inhibition of human mTOR/FRAP1 assessed as enzyme activity using FITC-geldanamycin as substrate at 30 uM pre-incubated for 30 min followed by 3 hrs incubation by fluorescence polarization based method relative to control. The arrangement: scale not given: the % may be the effect or the level left. In general terms: Polarisation of emitted light reports the rotation of a fluorescent probe.

For assay [3], the target named is T1, [Pyruvate dehydrogenase (acetyl-transferring)] kinase isozyme 2, mitochondrial. Kind of assay: Inhibition of PDHK2 in human A549 cells in PDH phosphorylation at Ser293 residue at 50 uM by immunoblotting analysis. The class given is cell-based. As to conditions: time 1-24 hrs. In general terms: Immunoblotting shows a protein as a band on a membrane.
The target of assay [4] is AMP-activated protein kinase alpha-1/beta-2/gamma-3 (Homo sapiens) (UniProt O43741+Q13131+Q9UGI9). Nature of the assay: Inhibition of human AMPK(alpha1/beta2/gamma3) assessed as enzyme activity using FITC-geldanamycin as substrate at 30 uM pre-incubated for 30 min followed by 3 hrs incubation by fluorescence polarization based method relative to control. To be noted: time 210.0 min. The arrangement: scale not given: the % may be the effect or the level left. The class given is protein-complex assay.

The target in assay [5] is AMP-activated protein kinase alpha-2/beta-2/gamma-2 (Homo sapiens) (UniProt P54646+O43741+Q9UGJ0). Kind of assay: Inhibition of human AMPK(alpha2/beta2/gamma2) assessed as enzyme activity using FITC-geldanamycin as substrate at 30 uM pre-incubated for 30 min followed by 3 hrs incubation by fluorescence polarization based method relative to control. The assay is classed as protein-complex assay. Also noted: scale not given: the % may be the effect or the level left. To be noted: time 210.0 min.

Assay [6] concerns the target Transient receptor potential cation channel subfamily M member 7 (Homo sapiens) (UniProt Q96QT4). Kind of assay: Inhibition of human TRPM7/CHAK1 assessed as enzyme activity using FITC-geldanamycin as substrate at 30 uM pre-incubated for 30 min followed by 3 hrs incubation by fluorescence polarization based method relative to control. Also noted: scale not given: the % may be the effect or the level left. As to conditions: time 210.0 min.

Assay [7] deals with T2, Eukaryotic elongation factor 2 kinase (Homo sapiens) (UniProt O00418).
T2 sequence (whole entry): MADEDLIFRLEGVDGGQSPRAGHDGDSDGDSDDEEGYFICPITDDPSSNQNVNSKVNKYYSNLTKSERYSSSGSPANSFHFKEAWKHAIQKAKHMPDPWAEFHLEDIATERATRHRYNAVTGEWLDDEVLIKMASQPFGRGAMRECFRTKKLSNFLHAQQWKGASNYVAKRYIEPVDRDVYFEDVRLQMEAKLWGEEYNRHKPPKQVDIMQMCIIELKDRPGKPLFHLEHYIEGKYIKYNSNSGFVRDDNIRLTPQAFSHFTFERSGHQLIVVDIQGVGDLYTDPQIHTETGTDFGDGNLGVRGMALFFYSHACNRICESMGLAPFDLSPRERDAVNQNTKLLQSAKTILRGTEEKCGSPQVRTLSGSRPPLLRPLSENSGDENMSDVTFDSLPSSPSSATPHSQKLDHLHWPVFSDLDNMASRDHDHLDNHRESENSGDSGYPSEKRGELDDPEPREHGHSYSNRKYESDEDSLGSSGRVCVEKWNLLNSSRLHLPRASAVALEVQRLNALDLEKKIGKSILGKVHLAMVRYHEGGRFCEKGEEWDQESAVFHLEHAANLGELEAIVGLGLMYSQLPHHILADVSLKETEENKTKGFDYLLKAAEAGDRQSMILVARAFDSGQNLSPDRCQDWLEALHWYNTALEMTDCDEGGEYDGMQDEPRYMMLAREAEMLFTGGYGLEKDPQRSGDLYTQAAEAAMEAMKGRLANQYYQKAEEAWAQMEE
Kind of assay: Inhibition of human EEF2K assessed as enzyme activity using FITC-geldanamycin as substrate at 30 uM pre-incubated for 30 min followed by 3 hrs incubation by fluorescence polarization based method relative to control. The arrangement: scale not given: the % may be the effect or the level left. To be noted: time 210.0 min.

The target of assay [8] is AMP-activated protein kinase (AMPK) alpha-1/beta-1/gamma-1 (Homo sapiens) (UniProt P54619+Q9Y478+Q13131). Kind of assay: Inhibition of human AMPK(alpha1/beta1/gamma1) assessed as enzyme activity using FITC-geldanamycin as substrate at 30 uM pre-incubated for 30 min followed by 3 hrs incubation by fluorescence polarization based method relative to control. The class given is protein-complex assay. The arrangement: scale not given: the % may be the effect or the level left.

For assay [9], the target named is T3, [Pyruvate dehydrogenase (acetyl-transferring)] kinase isozyme 3, mitochondrial (Homo sapiens, UniProt Q15120). Nature of the assay: Binding affinity to human PDHK3 expressed in permeabilized HEK293 cells at 30 uM for 2 hrs by NanoBRET target engagement assay. The assay is classed as cell-based.
The target of assay [10] is Tyrosine-protein kinase BTK (Homo sapiens) (UniProt Q06187). Nature of the assay: Inhibition of human BTK assessed as enzyme activity using FITC-geldanamycin as substrate at 30 uM pre-incubated for 30 min followed by 3 hrs incubation by fluorescence polarization based method relative to control. Also noted: scale not given: the % may be the effect or the level left. To be noted: time 210.0 min.

Assay [11] has as its target eIF-2-alpha kinase GCN2 (Homo sapiens) (UniProt Q9P2K8). Nature of the assay: Inhibition of human EIF2AK4 assessed as enzyme activity using FITC-geldanamycin as substrate at 30 uM pre-incubated for 30 min followed by 3 hrs incubation by fluorescence polarization based method relative to control. Also noted: scale not given: the % may be the effect or the level left. To be noted: time 210.0 min.

The target of assay [12] is T4, Eukaryotic translation initiation factor 2-alpha kinase 3 (Homo sapiens) (UniProt Q9NZJ5).
T4 sequence (whole entry): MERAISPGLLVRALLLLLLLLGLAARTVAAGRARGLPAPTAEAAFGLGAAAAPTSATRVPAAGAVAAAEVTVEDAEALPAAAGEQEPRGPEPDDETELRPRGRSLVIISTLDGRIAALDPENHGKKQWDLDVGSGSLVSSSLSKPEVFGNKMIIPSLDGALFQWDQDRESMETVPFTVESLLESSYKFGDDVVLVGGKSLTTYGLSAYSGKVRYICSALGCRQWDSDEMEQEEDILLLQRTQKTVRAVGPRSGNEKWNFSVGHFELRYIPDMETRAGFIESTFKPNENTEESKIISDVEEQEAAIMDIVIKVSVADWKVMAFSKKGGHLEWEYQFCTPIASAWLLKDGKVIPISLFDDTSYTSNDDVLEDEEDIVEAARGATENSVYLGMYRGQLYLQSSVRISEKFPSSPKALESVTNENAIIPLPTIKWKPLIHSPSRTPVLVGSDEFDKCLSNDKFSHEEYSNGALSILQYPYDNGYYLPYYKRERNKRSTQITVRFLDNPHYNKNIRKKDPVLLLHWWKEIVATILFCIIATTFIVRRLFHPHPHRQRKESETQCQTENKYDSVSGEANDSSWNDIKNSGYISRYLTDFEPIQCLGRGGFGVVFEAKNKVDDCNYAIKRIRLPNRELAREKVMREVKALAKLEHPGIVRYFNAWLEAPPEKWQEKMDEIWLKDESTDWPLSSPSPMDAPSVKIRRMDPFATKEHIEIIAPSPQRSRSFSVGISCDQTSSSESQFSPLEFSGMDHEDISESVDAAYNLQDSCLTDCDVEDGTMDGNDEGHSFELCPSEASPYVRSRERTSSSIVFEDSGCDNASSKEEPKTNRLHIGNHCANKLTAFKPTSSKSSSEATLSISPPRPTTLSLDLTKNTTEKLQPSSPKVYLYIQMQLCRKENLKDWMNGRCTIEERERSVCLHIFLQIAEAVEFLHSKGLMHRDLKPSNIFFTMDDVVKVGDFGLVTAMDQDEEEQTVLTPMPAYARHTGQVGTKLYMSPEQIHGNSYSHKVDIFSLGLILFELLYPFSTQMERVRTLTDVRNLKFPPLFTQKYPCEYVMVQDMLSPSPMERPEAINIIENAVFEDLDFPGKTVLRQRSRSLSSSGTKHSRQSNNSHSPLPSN
Kind of assay: Inhibition of human EIF2AK3 assessed as enzyme activity using FITC-geldanamycin as substrate at 30 uM pre-incubated for 30 min followed by 3 hrs incubation by fluorescence polarization based method relative to control. Also noted: scale not given: the % may be the effect or the level left. As to conditions: time 210.0 min.

Assay [13] deals with Heat shock protein HSP 90-alpha (Homo sapiens) (UniProt P07900). Kind of assay: Inhibition of human Hsp90alpha assessed as enzyme activity using FITC-geldanamycin as substrate at 30 uM pre-incubated for 30 min followed by 3 hrs incubation by fluorescence polarization based method relative to control. Also noted: scale not given: the % may be the effect or the level left. As to conditions: time 210.0 min.

For assay [14], the target named is T5, [Pyruvate dehydrogenase (acetyl-transferring)] kinase isozyme 4, mitochondrial (Homo sapiens, UniProt Q16654). Nature of the assay: Binding affinity to human PDHK4 expressed in permeabilized HEK293 cells at 30 uM for 2 hrs by NanoBRET target engagement assay. The assay is classed as cell-based.
The target of assay [15] is T3, [Pyruvate dehydrogenase (acetyl-transferring)] kinase isozyme 3, mitochondrial. Kind of assay: Inhibition of PDHK3 in human A549 cells in PDH phosphorylation at Ser293 residue at 50 uM by immunoblotting analysis. The assay is classed as cell-based. To be noted: time 1-24 hrs.
Assay [16] addresses Non-receptor tyrosine-protein kinase TYK2 (Homo sapiens) (UniProt P29597). Nature of the assay: Inhibition of human TYK2 assessed as enzyme activity using FITC-geldanamycin as substrate at 30 uM pre-incubated for 30 min followed by 3 hrs incubation by fluorescence polarization based method relative to control. The arrangement: scale not given: the % may be the effect or the level left. As to conditions: time 210.0 min.

In assay [17] the target is T5, [Pyruvate dehydrogenase (acetyl-transferring)] kinase isozyme 4, mitochondrial. Nature of the assay: Inhibition of PDHK4 in human A549 cells in PDH phosphorylation at Ser293 residue at 50 uM by immunoblotting analysis. The class given is cell-based. As to conditions: time 1-24 hrs.

As for `Cc1ccc(Cl)cc1S(=O)(=O)Nc1cc(C(=O)O)ccc1Br`, the Activity result in [1] was “No effect”; in assay [2], 94.8%; in assay [4], 97.4%; in [5], 100%; in [6] it was 101%; in [7], 95.2%. The Activity in assay [8] was 101%; in assay [9], “No effect”; in assay [10] it was 81.3%; in assay [11] it was 104%; in assay [12], 102%; in [13] it was 102%. The values for the Activity entry in assay [14] and in [16] were “No effect” and 87.9%, respectively. In addition, the outcome in [3], in [15] and in [17] was inactive.

Source of the values: ChEMBL document CHEMBL6121009, “Identification of a selective pyruvate dehydrogenase kinase 1 (PDHK1) chemical probe by virtual screening” (Eur J Med Chem, 2025).
